US20230130766A1 (SALK INSTITUTE FOR BIOLOGICAL STUDIES, priority 2020, published 2023)

Biological target: T1, ULK1 (Homo sapiens, UniProt O75385)
T1 sequence (O75385 1-1050): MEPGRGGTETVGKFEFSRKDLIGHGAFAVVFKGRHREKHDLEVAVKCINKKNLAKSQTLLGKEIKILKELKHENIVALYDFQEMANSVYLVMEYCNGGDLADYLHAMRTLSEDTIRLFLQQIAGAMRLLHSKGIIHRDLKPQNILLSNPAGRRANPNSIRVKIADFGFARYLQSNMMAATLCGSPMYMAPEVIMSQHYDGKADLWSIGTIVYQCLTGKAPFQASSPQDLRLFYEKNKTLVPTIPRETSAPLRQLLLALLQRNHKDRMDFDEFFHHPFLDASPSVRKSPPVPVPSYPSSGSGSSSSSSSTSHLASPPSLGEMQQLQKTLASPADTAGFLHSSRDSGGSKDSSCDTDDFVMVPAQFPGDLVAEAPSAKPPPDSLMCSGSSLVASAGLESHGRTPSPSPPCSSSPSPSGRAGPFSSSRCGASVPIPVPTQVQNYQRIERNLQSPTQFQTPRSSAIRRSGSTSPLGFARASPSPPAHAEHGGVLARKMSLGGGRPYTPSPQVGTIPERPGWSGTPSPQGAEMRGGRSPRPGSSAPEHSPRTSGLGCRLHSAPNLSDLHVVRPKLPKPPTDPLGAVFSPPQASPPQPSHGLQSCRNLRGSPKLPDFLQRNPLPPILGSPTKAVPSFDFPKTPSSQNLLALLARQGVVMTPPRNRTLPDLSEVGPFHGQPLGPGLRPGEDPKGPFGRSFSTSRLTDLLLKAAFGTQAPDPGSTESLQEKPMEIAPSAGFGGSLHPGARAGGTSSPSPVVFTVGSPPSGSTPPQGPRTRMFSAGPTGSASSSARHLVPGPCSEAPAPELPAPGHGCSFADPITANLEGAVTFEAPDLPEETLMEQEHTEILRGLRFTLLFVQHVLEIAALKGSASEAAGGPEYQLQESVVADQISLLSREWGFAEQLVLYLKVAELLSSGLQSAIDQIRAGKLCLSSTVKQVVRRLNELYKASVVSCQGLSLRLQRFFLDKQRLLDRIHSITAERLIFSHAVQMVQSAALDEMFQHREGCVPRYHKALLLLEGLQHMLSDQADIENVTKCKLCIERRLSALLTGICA
Experiment: ULK1 inhibition assay
Format: biochemical
Details: * = tested as a mixture of regioisomers

Compound | IC50
FC(F)(F)c1cnc(Nc2ccc3nc[nH]c3c2)nc1NC1CC1 [Compound 211] | < 200 nM
Nc1n[nH]c(Nc2nc(Nc3ccc4c(c3)CCC(=O)N4)ncc2C(F)(F)F)n1 [Compound 243] | 200 to 2000 nM
O=C1CCc2cc(Nc3ncc(C(F)(F)F)c(NCC(F)(F)F)n3)ccc2N1 [Compound 222] | < 200 nM
FC(F)(F)c1cnc(Nc2ccc3nccnc3c2)nc1NC1CC1 [Compound 305] | < 200 nM
Oc1ccccc1Nc1ncc(C(F)(F)F)c(NC2CC2)n1 [Compound 255] | < 200 nM
FC(F)(F)c1cnc(Nc2ccc3[nH]ncc3c2)nc1NC1CC1 [Compound 195] | < 200 nM
CS(=O)(=O)Nc1nc(Nc2ccc3c(c2)CCC(=O)N3)ncc1C(F)(F)F [Compound 226] | > 2000 nM
